# System: DLD-1 BRCA2KO cells
# Assay: Combination viability assay (CTG, Bliss synergy)
# Assay type: cell-based
# Conditions: 7 days
# Experimental: For combination analysis, cells were seeded in 70 μl of media in 384-well plates pre-dosed with compounds (5-point dose–response matrix) with a D300e digital dispenser (Tecan). Cell proliferation was determined after 7 days using CTG. Analysis was performed with Genedata Screener (Compound Synergy Extension) to determine Synergy scores (Bliss model), using a formulation whereby the Blissexcess is a continuous value and values higher than 2 are usually considered synergistic, and values between 0 and 2 are usually considered additive.
smiles,measurement,value
CN(C)CCCOc1ccc(-c2ccc3ncc4c(c3c2)n(C2CCOCC2)c(=O)n4C)cn1 [AZD0156],Combination effect with MSC778,no benefit was observed

# Source: article PMC12684391, “Mechanistic insights into the monotherapy and combination potential of FEN1 inhibition in cancer therapy” (Nucleic Acids Research, 2025)
